Reference: patent US11242555B2, “Molecular sensors and uses thereof” (New York University, priority 2018, dated 2022)

Test system: flexible molecular sensor (DNA)
Experiment: Flexible (tongs-shaped) molecular sensor in solution, groove binders and polypeptides (FRET ratio)
Type: binding

Substance | FRET ratio as a function of compound concentration
penta-lysine | increase the FRET ratio
tetra-lysine | increase the FRET ratio
